According to patent US11771779B2, “Non-metallic magnetic resonance contrast agent” (HADASIT MEDICAL RESEARCH SERVICES & DEVELOPMENT LIMITED, priority 2018, dated 2023):
“Also recorded” adds a separate entry of the source. Read-outs that look alike come from different tables or passages of the source.

Details: whole human blood/saline, hyperpolarized signal monitored 4 min, 32-36° C.
Description: The small amounts of hyperpolarized solution were added to the blood sample at 0, 3, 6, 7.25, and 9.17 min from arrival of the solution to the collection tube.

In the case of `O=[15N+]([O-])[O-].[Na+]` [[^15N]nitrate, sodium [^15N]nitrate], the “stability in blood (conversion to [^15N]nitrite)” value is reported as “only the [^15N]nitrate signal was detected; also recorded: not significantly metabolized” and the “stability in blood (conversion to [^15N]nitrite)” value (listed as nitrate) is reported as “not affected by the contact with the blood components; also recorded: could not detect any metabolism of nitrate to nitrite”.
